This note sets out measurements from PMC7734590, “Identification of a Selective RelA Inhibitor Based on DSE-FRET Screening Methods” (International Journal of Molecular Sciences, 2020).

Protein sequences, listed by entry. Tags and fused reporters are not part of them. Residues count along the entry.
UniProt Q04206, 19-306 limits assumed: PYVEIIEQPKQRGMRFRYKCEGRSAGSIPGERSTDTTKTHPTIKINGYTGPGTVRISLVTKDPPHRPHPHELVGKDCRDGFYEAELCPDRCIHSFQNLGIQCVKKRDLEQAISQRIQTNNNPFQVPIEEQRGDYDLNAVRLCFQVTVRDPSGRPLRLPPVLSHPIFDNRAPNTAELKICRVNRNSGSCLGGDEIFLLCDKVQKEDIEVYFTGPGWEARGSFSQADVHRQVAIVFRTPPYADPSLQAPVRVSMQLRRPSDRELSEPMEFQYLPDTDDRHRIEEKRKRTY

One experiment deals with RelA (Homo sapiens, UniProt Q04206). As to the kind of experiment: DSE-FRET RelA–DNA binding inhibition. The class given is biochemical. Set-up: dose or concentration left out as unconfirmed.
The target of another experiment is T1, p52 (Homo sapiens, UniProt Q00653).
T1 sequence (Q00653 1-454 limits assumed): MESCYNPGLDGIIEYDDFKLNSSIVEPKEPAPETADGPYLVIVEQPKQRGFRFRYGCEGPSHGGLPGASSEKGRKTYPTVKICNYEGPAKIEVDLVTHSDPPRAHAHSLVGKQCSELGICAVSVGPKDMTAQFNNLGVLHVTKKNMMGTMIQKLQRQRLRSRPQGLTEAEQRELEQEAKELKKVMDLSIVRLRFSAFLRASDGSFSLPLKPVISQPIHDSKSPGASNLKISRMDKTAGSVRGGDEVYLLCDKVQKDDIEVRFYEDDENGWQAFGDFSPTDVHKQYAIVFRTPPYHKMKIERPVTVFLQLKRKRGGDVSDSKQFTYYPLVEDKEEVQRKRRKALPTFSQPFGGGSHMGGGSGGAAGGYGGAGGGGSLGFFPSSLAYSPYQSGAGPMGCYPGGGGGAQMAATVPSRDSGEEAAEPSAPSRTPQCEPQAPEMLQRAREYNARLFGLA
As to the kind of experiment: DSE-FRET p52–DNA binding inhibition. The class given is biochemical. Set-up: dose or concentration left out as unconfirmed.

Regarding `COc1ccc(C[C@H]2NC[C@H](O)[C@H]2OC(C)=O)cc1` [Anisomycin], at RelA, the “Kinetic assay RelA Inhibition % ΔRFU(60 min-0 min)” value is on record as -1.48%, the “RelA HTS % Inhibition” value is reported as 52.5%, the “RelA Retest % Inhibition Avg.” value is recorded as 1.4% and the “RelA Retest % Inhibition Run1” value worked out at 0.565%. Besides, the “RelA Retest % Inhibition Run2” value at RelA was determined as 2.1%. In addition, the “p52 HTS % Inhibition” value at p52 (HTS, NPDepo hits) is listed as 1.6%. Besides, the “p52 Retest % Inhibition Run1” value at p52 (Retest Run1) worked out at 0.6%. The “p52 Retest % Inhibition Run2” value at p52 (Retest Run2) came out at 1.8%. Besides, the “p52 Retest % Inhibition Avg.” value on p52 (Retest average of Run1 and Run2) amounted to 1.2%. Besides, the “Kinetic assay p52 Inhibition % ΔRFU(60 min-0 min)” value on p52 (kinetic assay, ΔRFU 60 min-0 min) is on record as -0.041%.
